## Ab-14 heavy chain CDR variants: yeast mating affinities

From the AlphaSeq antibody data of Li et al. 2023 (doi:10.1038/s41467-023-39022-2), copy in the FLAb collection.

Target peptide (SARS-CoV-2 spike, HR2 region): PDVDLGDISGINAS

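The starting antibody came from a phage panning campaign against this peptide. Designed CDR sequences, proposed from the first random library and measured here. Several design methods are mixed in this list. Affinity was read by AlphaSeq, a pooled yeast mating assay with surface-displayed partners. After mating in shaken culture at 30 °C for 16 h, diploids were selected and their barcode pairs sequenced. Read counts were normalised to the haploid input and turned into Kd by a linear fit to BCL2-family pairs of known affinity, for each replicate. Mating was done six times.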

Parent scFv Ab-14: VH joined to VL by three GGGGS repeats. Changes lie in the heavy chain CDRs alone.
VH: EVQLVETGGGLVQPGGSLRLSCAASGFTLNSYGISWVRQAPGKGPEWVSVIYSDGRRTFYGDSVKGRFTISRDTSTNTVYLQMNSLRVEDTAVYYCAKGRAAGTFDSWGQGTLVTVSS
VL: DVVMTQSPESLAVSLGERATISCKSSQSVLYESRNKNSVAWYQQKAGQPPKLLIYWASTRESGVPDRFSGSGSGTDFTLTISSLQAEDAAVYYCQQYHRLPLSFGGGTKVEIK

The parent's heavy chain CDRs are GFTLNSYGIS, VIYSDGRRTFYGDSVK, GRAAGTFDS; each variant's own CDRs replace them letter for letter.
Numbers give log10(Kd / nM), so 0 is 1 nM and 3 is 1 µM. Smaller is tighter.
Averages over replicates are reported, and they cover detected replicates only.
A pair that was not seen in any replicate is written "no signal"; this usually means weak binding, but a binder can also be missed.
The list is sorted by this average, lowest first, undetected variants last.
Values of this round are not directly comparable with the first-round values of the same sequences.

"log10 Kd (nM), mean",replicates with signal,CDR-H1,CDR-H2,CDR-H3
-0.79,6 of 6,GFDLNEYGIS,VIYADGLRTFYTDSVK,GESAGTFDV
-0.65,6 of 6,GFTLTSYGIS,VIYSDGKRVFYGDSVK,GRVAGAFDS
-0.58,6 of 6,GFDLNEYGIS,VIYADGMRTAYKDSVK,GNNAGTFDV
-0.57,6 of 6,GFDLNEYGIS,VIYADGTRTAYADSVK,GENAGTFDI
-0.57,6 of 6,GFDLDEYGIS,VIYADGMRTAYADSVK,GNNAGTFDM
-0.54,6 of 6,GFDLNEYGIS,VIYADGRRTFYLDSVK,GQVAGTFDS
-0.52,6 of 6,GFDLDEYGIS,VIYADGMRTFYADDVK,GENAGTFDL
-0.46,6 of 6,GFDLNEYGIS,VIYADGMRTAYAEDVK,GNVAGTFDV
-0.27,6 of 6,GFDLDEYGIS,VIYADGRRTFYADSVK,GEAAGTFDS
-0.22,6 of 6,GFDLNEYGIS,VIYADGMRTAYSDSVK,GNQAGTFDT
-0.12,6 of 6,GDTLNSYGIS,VIYADGRRTFYSDSVK,GRAAGTFDS
-0.11,6 of 6,GFTLEDYGIS,VIYSDGRRTFYSDSVK,GRAAGTFDS
-0.02,6 of 6,GFSLNSYGIS,VIYSDGRRTFYGDSVK,GSVAGTFDS
0.01,5 of 6,GFDLNSYGIS,VIYSDGRRTFYGDSVK,GRTAGTFDL
0.07,6 of 6,GFTLNEYGIS,VIYSDGRRTFYGDSVK,GTAAGTFDL
0.10,6 of 6,GFTLNEYGIS,VIYSDGRRTFYGDSVK,GRIAGTFDS
0.15,2 of 6,GFELNSYGIS,VIYSDGRRTFYGDSVK,GSTAGTFDS
0.18,6 of 6,GFSLNEYGIS,VIYSDGRRTFYGDSVK,GHAAGTFDR
0.19,6 of 6,GFDLNSYGIS,VIYSDGRRTFYGDQVK,GNVAGTFDS
0.32,6 of 6,GFDLNSYGIS,VIYSDGKRTFYGDSVK,GKAAGTFDS
0.33,5 of 6,GFDLNSYGIS,VIYSDGLRTFYGDSVK,GKTAGTFDS
0.41,1 of 6,GFDLDEYGIS,VIYADGRRTAYADSVK,GNTAGTFDQ
0.42,6 of 6,GFDLNEYGIS,VIYADGRRTFYADSVK,GEAAGSFDQ
0.52,6 of 6,GFELNSYGIS,VIYSDGRRTAYGDSVK,GRQAGTFDS
0.59,6 of 6,GFQLNEYGIS,VIYSDGRRTMYGDSVK,GRQAGTFDS
0.77,6 of 6,GFKLNSYGIS,VIYSDGRRTFYADSVK,GRQAGTFDS
0.78,6 of 6,GFDLNEYGIS,VIYADGMRTVYSDSVK,GENAGTFDL
0.80,2 of 6,GFTINSYGIS,VIYSDGRRTFYGDAVK,GRAAKRFDS
1.04,3 of 6,GFTLNSYGIS,VIYSDGRRTMYHDSVK,GQLAGTFDS
1.17,6 of 6,GFQLNSYGIS,VIYSDGRRTFYADRVK,GEAAGTFDK
1.17,6 of 6,GFWLNEYGIS,VIYSDGRRTWYGDSVK,GRTAGTFDS
1.20,6 of 6,GFTLNEYGIS,VIYSDGKRTFYGDSVK,GRAAGTFDE
1.37,5 of 6,KFTLNSYGIS,VIYSDGKRTFYADSVK,GRQAGTFDS
1.60,1 of 6,GFQINEYGIS,VIYADGLRAAYSQDVK,GMDTGDFVD
1.62,2 of 6,GFVLNDYGIS,VIYSDGRRTFYIDSVK,GRAAGTFDE
1.82,4 of 6,GFDLNEYGIS,VIYADGKRTAYADSVK,GENAGTFVQ
1.85,6 of 6,GFTLKSYGIS,VIYSDGRRTFYSDSVK,GEAGGTFDS
1.85,2 of 6,GFNLNSYGIS,VIYGDGRRTFYGDSVK,GRAAGTFDS
1.96,6 of 6,GFVLNEYGIS,VIYSDGRRTFYGDSVK,GEAAGTFDL
2.06,2 of 6,GFTLNMYGIS,VIYSDGRRTFYTDSVK,GRAAGTFDS
3.41,2 of 6,GFALNEYGIS,VIYADNRRTQYGDSVK,GRAAGTVPS
3.91,1 of 6,GFSLDEYGIS,VIYADGLRSFYQDQVK,GELALSLDT
3.98,1 of 6,GFSLDEQGIS,VIYADGIRRSYAQKVK,GQYGGDFIE
no signal,0 of 6,GFTLNSYGIS,VIYSDGRRTFYDDSVK,GSAAGTFMS
no signal,0 of 6,GFSLNSYGIS,VIYSDGRRTFYDDSVK,GRAAGTFDS
no signal,0 of 6,GEDLNEYGIS,VIYADGQRTYYDESVK,GKFAGSFFH
no signal,0 of 6,GRTLNSYGIS,VIYSDGRRTFYHDSVK,GRATGTFDT
no signal,0 of 6,GFTLNSYGIS,VIYSDGFRTFYGDSVK,GRAALTFDS
no signal,0 of 6,GFTLNDYGIS,VIYSDGRRTFYGDSVK,GDAAGTSDS
no signal,0 of 6,SFTLNDYGIS,VIYSDMRRQQYIDSVK,ARAAGTFDS
no signal,0 of 6,GFFLTSYGIS,VIYSDGRRTYYGDSVK,GRAAWTFDS
no signal,0 of 6,GFTLNMYGIS,VIYSDGSRQFYGDSVK,GRNAGLFDS
no signal,0 of 6,GFTLNEYGIS,VIYSDGRRTFYGDSVK,GRNAFTFDS
no signal,0 of 6,GFNMDEYGIS,VIYADGRRTFYTNSVK,GVVTWSGKV
no signal,0 of 6,GFEIDEYGIS,VIYADGKRTSYSDTVK,GQLGNAFDL
no signal,0 of 6,GFNLDDMGIS,VIYADGERTAYSDSVK,GHEGYFMNV
no signal,0 of 6,GFTLNEYGIS,VIYSDGRRTFYTDSVK,GRAAGTFTS
no signal,0 of 6,GFQLNEYGIS,VIYSDGRRTFYGDSVK,GRIAGTFIS
no signal,0 of 6,GFTLNDYGIS,VIYSDGRRTWYGDSVK,GRAAGTFWS
no signal,0 of 6,GFTLLSYGIS,VIYSDGRRTFYIDSVK,GRAAGTFDS
no signal,0 of 6,GFQINEYGIS,VIYADGMRAGYADDVK,GSKDGNIIG
no signal,0 of 6,GPNLQEYGIS,VIYADGIRSAYKDDVK,GQHAGYFLE
no signal,0 of 6,GFTLNQYGIS,VIYSDGRRTFIGDSVK,GRAAGFFDS
no signal,0 of 6,GFSLDEYGIS,VIYADGLRQHYANAVK,GEGAGTFTT
no signal,0 of 6,GFDLTEYGIS,VIYADGVRTHYADNVK,GKSDGTNMA
no signal,0 of 6,GFTLDEYGIS,VIYADGQRTAYIDDVK,GQMGGNGYG
no signal,0 of 6,GFTLNSYGIS,VIYSDGRRTFYGDSTK,GRAAGTFDS
no signal,0 of 6,GFSLGEYGIS,VIYADGVRRSYADKVK,GKNGAISLV

Extract of 6 entries:

| CDR-H1 | CDR-H2 | CDR-H3 | log10 Kd (nM), mean | replicates with signal |
|---|---|---|---|---|
| GFQINEYGIS | VIYADGLRAAYSQDVK | GMDTGDFVD | 1.60 | 1 of 6 |
| SFTLNDYGIS | VIYSDMRRQQYIDSVK | ARAAGTFDS | no signal | 0 of 6 |
| GFTLNMYGIS | VIYSDGSRQFYGDSVK | GRNAGLFDS | no signal | 0 of 6 |
| GFFLTSYGIS | VIYSDGRRTYYGDSVK | GRAAWTFDS | no signal | 0 of 6 |
| GFTLNSYGIS | VIYSDGRRTMYHDSVK | GQLAGTFDS | 1.04 | 3 of 6 |
| GPNLQEYGIS | VIYADGIRSAYKDDVK | GQHAGYFLE | no signal | 0 of 6 |

Of ten entries with the parent sequence, four were seen in most replicates (averages 0.34 to 2.37), three in one and three in none, so single entries are noisy.
As a blank, each scFv also met three strains without target: over all heavy chain designs, 1% of these pairings were detected, typically at 2.08 and seldom below 0.84.
The authors averaged sequences with at least three values out of six and counted those with two or fewer as poor binders.